According to PMC4950319, “Kinetic and structural characterization of amyloid‐β peptide hydrolysis by human angiotensin‐1‐converting enzyme” (The Febs Journal, 2016):
Several values for one entry are separate records, joined by “and”; a condition that tells them apart may be missing. Identical values can stand only once.

Protein sequences, listed by entry. Tags and fused reporters are not part of them. Residues count along the entry.
UniProt P12821, 30-658: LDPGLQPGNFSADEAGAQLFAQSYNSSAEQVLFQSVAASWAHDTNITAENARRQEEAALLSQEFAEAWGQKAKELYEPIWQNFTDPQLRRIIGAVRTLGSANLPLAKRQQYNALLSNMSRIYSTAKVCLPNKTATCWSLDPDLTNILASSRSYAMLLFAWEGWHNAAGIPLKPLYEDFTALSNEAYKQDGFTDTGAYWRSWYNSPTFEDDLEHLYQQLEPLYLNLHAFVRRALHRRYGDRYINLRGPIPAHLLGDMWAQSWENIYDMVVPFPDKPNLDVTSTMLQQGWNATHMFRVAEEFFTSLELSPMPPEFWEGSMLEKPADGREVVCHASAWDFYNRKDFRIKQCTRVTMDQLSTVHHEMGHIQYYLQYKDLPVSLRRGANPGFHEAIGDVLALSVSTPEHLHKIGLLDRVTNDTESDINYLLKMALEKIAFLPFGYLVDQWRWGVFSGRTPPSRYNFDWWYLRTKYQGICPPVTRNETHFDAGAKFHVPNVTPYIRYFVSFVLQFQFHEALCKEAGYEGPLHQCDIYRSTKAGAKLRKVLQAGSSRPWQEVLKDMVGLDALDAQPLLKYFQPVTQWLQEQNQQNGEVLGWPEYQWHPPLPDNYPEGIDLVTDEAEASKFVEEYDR
UniProt P12821, 30-1306 H988K/H992K: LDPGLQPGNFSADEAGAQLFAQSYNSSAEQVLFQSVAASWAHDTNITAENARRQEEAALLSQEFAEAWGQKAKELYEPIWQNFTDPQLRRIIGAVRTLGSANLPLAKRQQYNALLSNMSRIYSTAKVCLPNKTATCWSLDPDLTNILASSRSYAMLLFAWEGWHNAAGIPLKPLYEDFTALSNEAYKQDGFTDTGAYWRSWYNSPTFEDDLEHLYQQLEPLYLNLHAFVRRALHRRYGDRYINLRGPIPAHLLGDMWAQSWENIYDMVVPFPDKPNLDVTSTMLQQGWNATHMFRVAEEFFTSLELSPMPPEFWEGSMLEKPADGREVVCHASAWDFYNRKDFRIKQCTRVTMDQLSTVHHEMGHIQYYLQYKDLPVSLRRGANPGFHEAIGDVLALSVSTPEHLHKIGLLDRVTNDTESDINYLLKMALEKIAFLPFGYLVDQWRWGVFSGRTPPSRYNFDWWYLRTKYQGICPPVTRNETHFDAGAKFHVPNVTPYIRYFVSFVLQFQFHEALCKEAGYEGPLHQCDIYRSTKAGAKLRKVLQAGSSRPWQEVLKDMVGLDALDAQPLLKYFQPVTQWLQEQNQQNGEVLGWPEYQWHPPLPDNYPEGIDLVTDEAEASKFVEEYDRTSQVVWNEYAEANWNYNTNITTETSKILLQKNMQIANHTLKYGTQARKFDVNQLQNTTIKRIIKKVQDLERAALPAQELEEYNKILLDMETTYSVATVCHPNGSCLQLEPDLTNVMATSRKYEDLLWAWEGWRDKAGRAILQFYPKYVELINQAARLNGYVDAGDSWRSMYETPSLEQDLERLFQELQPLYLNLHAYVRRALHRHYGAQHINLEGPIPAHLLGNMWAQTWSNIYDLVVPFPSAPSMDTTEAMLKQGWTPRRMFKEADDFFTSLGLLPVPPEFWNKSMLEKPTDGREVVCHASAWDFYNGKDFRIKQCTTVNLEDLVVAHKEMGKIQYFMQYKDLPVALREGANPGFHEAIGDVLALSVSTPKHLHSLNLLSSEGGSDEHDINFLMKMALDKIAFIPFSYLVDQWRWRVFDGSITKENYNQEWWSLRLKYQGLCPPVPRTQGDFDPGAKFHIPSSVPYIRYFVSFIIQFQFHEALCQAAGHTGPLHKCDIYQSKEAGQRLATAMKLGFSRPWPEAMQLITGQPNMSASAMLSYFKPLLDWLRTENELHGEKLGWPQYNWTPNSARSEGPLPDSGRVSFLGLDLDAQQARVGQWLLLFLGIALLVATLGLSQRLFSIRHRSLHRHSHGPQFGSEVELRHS
UniProt P12821, 30-1306: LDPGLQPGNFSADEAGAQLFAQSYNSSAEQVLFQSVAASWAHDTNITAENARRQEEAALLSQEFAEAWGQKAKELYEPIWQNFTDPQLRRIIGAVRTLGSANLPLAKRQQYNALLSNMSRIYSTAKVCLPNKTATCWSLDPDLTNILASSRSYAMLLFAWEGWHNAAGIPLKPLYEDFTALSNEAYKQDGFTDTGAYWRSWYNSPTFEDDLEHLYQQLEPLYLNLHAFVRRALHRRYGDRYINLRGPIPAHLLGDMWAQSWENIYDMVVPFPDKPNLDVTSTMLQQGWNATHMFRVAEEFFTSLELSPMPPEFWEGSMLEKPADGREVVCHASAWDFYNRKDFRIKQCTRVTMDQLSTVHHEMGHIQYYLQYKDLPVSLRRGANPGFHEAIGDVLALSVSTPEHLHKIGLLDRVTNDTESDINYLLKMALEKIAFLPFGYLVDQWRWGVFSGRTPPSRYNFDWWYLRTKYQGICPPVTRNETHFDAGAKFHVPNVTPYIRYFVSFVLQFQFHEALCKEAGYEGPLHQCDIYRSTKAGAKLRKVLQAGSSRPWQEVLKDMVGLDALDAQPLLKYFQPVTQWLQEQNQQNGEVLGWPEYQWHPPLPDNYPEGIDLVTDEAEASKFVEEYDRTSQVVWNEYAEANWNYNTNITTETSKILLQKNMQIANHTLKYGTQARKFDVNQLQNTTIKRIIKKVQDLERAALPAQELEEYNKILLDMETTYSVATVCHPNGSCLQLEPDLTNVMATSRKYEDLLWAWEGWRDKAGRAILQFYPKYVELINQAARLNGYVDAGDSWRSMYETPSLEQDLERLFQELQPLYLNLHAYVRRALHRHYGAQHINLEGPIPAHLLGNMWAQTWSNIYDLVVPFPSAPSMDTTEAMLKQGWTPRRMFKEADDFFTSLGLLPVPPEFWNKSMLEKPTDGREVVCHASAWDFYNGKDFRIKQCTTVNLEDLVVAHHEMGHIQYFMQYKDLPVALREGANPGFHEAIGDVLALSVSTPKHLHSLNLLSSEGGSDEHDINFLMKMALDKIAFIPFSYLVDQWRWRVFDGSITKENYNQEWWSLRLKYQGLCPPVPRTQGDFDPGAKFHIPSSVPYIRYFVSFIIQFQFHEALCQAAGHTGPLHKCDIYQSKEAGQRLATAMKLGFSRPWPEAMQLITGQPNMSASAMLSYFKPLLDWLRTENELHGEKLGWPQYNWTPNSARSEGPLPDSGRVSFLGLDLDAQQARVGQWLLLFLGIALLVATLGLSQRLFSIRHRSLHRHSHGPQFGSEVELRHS
UniProt P12821, 30-1306 H390K/H394K: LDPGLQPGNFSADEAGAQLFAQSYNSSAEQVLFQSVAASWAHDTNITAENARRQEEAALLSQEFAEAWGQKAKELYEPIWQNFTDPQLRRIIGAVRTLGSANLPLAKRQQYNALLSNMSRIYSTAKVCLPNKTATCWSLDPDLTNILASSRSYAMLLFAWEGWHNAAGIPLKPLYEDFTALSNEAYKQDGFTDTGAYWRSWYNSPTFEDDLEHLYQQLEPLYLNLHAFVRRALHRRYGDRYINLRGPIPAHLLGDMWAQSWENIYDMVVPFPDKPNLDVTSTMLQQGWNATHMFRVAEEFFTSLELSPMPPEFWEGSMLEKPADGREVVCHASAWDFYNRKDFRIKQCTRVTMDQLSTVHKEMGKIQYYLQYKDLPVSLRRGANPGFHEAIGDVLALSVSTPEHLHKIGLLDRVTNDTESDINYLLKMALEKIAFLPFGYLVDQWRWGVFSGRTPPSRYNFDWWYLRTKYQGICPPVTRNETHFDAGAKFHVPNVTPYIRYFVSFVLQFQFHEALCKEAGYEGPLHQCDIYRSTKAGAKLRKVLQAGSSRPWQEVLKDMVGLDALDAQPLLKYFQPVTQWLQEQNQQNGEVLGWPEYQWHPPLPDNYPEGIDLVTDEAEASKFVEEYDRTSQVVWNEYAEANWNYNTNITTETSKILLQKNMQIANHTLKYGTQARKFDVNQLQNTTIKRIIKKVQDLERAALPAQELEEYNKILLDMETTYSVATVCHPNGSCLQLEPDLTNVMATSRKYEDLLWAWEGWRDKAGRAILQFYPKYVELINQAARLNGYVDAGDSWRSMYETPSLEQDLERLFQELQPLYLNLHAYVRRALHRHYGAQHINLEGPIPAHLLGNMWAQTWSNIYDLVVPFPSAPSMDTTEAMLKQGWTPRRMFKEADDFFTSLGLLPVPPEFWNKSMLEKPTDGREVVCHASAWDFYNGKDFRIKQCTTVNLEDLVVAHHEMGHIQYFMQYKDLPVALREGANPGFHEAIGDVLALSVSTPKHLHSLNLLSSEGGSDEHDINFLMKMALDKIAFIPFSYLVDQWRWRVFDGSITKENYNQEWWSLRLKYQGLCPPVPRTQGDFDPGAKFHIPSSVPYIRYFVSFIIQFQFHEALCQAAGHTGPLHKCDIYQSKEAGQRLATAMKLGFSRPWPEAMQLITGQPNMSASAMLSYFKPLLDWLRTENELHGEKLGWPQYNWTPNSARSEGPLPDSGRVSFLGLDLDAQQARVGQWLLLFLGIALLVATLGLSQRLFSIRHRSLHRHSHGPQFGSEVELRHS
UniProt P12821, 643-1222 limits assumed: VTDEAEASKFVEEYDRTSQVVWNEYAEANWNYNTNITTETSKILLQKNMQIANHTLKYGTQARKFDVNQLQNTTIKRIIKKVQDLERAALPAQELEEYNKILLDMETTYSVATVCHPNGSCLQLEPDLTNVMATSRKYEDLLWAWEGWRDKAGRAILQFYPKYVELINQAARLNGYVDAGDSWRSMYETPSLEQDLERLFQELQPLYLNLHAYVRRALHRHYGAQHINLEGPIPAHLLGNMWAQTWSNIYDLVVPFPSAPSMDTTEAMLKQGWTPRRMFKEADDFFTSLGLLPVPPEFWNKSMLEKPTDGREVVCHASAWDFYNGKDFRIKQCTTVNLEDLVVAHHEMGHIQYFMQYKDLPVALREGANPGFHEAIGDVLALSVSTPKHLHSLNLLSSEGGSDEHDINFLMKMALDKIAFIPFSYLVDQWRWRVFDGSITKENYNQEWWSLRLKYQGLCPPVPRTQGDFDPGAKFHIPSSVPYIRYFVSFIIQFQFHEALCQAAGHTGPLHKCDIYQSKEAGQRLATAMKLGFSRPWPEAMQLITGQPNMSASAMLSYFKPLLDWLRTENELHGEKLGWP

Legend:
[1] = molecular target: T1, Ndom (soluble form of the N‐domain of sACE) (Homo sapiens, UniProt P12821); test: Aβ(1–16) hydrolysis by Ndom, HPLC, Michaelis–Menten; type: biochemical; conditions: 50 mM Hepes pH 7.5, 100 mM NaCl, 10 μM ZnSO4, substrate 0 to 45 μM, 15 min, 37 °C, enzyme 0.013 pmol, n = 3
T1 construct: made in house; host or cells: CHO cells
Description: (§1) ACE and Aβ(1–16) (H‐DAEFRHDSGYEVHHQK‐OH) (Bachem AG) hydrolysis assays were performed in reaction tubes and transferred to HPLC vials for analysis using the Agilent 1260 Infinity HPLC. Mixtures were separated on a Poroshell 120 EC‐18 column with a 2.7 μm pore size. The reaction consists of 25 μL substrate incubated with 25 μL enzyme for 15 min at 37 °C and was stopped with the addition of 10 μL of 0.25% trifluoroacetic acid (TFA). The total reaction (60 μL) was cleared of contaminants on a spin column (GHP Nanosep® MF Centrifugal Device 0.45 μm pore size) and run on the HPLC. Kinetic parameters were determined through the fitting of initial rates to the Michaelis–Menten equation with GRAPHPAD PRISM software (v 4.01, GraphPad Prism®).
(§2) Enzyme reactions were initiated on the addition of 25 μL enzyme (at a final concentration within 10% hydrolysis of total substrate; see Table 1) to 25 μL Aβ(1–16) in Hepes buffer (50 mM Hepes pH 7.5, 100 mM NaCl, 10 μM ZnSO4 buffer), ranging in concentration from 0 to 45 μM. The reaction was incubated for 15 min at 37 °C and stopped with the addition of 10 μL 0.25% TFA to make up a total volume of 60 μL. The reactions were performed in triplicate and 50 μL injections were analysed via HPLC (Agilent Technologies) across a gradient of 0.1% TFA and 2% ACN in water to 0.1% TFA, 95% ACN. A calibration curve was set up to convert the product peak area to picomoles product formed, through the complete hydrolysis of the substrate with the N‐domain. The initial rates of reactions were generated by converting and plotting the resultant peak product area, and were used to assess enzyme activity. Kinetic constants were calculated using the Michaelis–Menten method using GRAPHPAD PRISM software (v 4.01, GraphPad Prism®).
(§3) Statistical analysis of the data was determined by Student's t test. Differences with P < 0.05 were considered statistically significant. Fractional error was calculated for the k cat/K m ratio with the following equation: ΔZ=ZΔa/a^2+Δb/b^2 where Z represents the mean k cat/K m and ΔZ represents the fractional error. The Δa represents the SEM of the mean k cat (a). Similarly, Δb represents the SEM of the mean K m (b).

N‐sACE = molecular target: T2, N‐sACE (Homo sapiens, UniProt P12821, H988K/H992K); test: Aβ(1–16) hydrolysis by N‐sACE, HPLC, Michaelis–Menten; type: biochemical
T2 construct: Both constructs have the complete signal, transmembrane and stalk region corresponding to full‐length sACE; made in house; host or cells: CHO cells; purified from cell lysate
Description: as §1, §2, §3

sACE [2] = molecular target: T3, sACE (Homo sapiens, UniProt P12821); test: Aβ(1–16) hydrolysis by sACE, HPLC, Michaelis–Menten; type: biochemical; conditions: 50 mM Hepes pH 7.5, 100 mM NaCl, 10 μM ZnSO4, substrate 0 to 45 μM, 15 min, 37 °C, enzyme 0.120 pmol, n = 3
T3 construct: made in house; host or cells: CHO cells; purified from cell lysate
Description: as §1, §2, §3

C‐sACE = molecular target: T4, C‐sACE (Homo sapiens, UniProt P12821, H390K/H394K); test: Aβ(1–16) hydrolysis by C‐sACE, HPLC, Michaelis–Menten; type: biochemical; conditions: 50 mM Hepes pH 7.5, 100 mM NaCl, 10 μM ZnSO4, substrate 0 to 45 μM, 15 min, 37 °C, enzyme 1.750 pmol, n = 3
T4 construct: Both constructs have the complete signal, transmembrane and stalk region corresponding to full‐length sACE; made in house; host or cells: CHO cells; purified from cell lysate
Description: as §1, §2, §3

CC‐sACE = test: Aβ(1–16) hydrolysis by CC‐sACE, HPLC; type: biochemical, human; conditions: Hepes pH 7.5, 37 °C, 15 min
Description: as §1
(§4) Enzyme reactions were initiated on the addition of 25 μL enzyme (at a final concentration within 10% hydrolysis of total substrate; see Table 1) to 25 μL Aβ(1–16) in Hepes buffer (50 mM Hepes pH 7.5, 100 mM NaCl, 10 μM ZnSO4 buffer), ranging in concentration from 0 to 45 μM. […] The reactions were performed in triplicate and 50 μL injections were analysed via HPLC (Agilent Technologies) across a gradient of 0.1% TFA and 2% ACN in water to 0.1% TFA, 95% ACN. […] Kinetic constants were calculated using the Michaelis–Menten method using GRAPHPAD PRISM software (v 4.01, GraphPad Prism®).
(§5) Statistical analysis of the data was determined by Student's t test. […]

[3] = molecular target: T5, Cdom (soluble form of the C‐domain of sACE) (Homo sapiens, UniProt P12821); test: Aβ(1–16) hydrolysis by Cdom, HPLC; type: biochemical; conditions: even after prolonged incubation times, Hepes pH 7.5, 37 °C
T5 construct: lacks the transmembrane region and unique 36 amino acid N terminus (and is therefore identical to the sACE C‐domain); made in house; host or cells: CHO cells
Description: as §1, §4, §5

ACE variants [4] = test: Cleavage‐site analysis by MALDI‐TOF MS, kinetic assay conditions; type: biochemical, human; conditions: MALDI‐TOF MS of products within kinetic assay conditions; Aβ(1–16): all ACE variants except Cdom; Aβ(4–10) peptides: Cdom and CC‐sACE not analysed
Description: To determine the bond at which the Aβ peptides were cleaved by the different ACE variants, each substrate was incubated under the stated assay conditions and the peptide products were purified for MALDI‐TOF MS analysis. For the Aβ(4–10)Q and Aβ(4–10)Y, peptides with m/z = 694.3 were identified (Table4). This corresponds to the N‐terminal o‐aminobenzoyl (Abz)‐FRHD peptide. Thus, both Aβ(4–10) peptides were endoproteolytically cleaved at the Asp7‐Ser8 bond. The Cdom and CC‐sACE cleavage sites were not analysed as there was negligible hydrolysis of the Aβ peptides by these ACE variants under kinetic assay conditions. […] These peptides correspond to the N terminus Aβ(1–14) (DAEFRHDSGYEVHH) with a calculated mass of 1698.7 (Table 4). […]
Kinetic reaction digests, 24 h digests and undigested Aβ(1–16) samples were collected off the HPLC, dried down with the Savant SpeedyVac (ThermoScientific, USA) and then resuspended in 50% acetonitrile (ACN) prior to being sent for mass spectrometry. […] The mass spectrometry was analysed at the Centre for Proteomic and Genomic Research (Cape Town, South Africa). […] Mass spectrometry was performed with a 4800 MALDI‐TOF/TOF (Applied Biosytems) with all spectra recorded in positive reflector mode. […]

ACE variants [5] = test: Cleavage‐site analysis by MALDI‐TOF MS, 24 h digest of Aβ(1–16); type: biochemical, human
Description: To determine the bond at which the Aβ peptides were cleaved by the different ACE variants, each substrate was incubated under the stated assay conditions and the peptide products were purified for MALDI‐TOF MS analysis. For the Aβ(4–10)Q and Aβ(4–10)Y, peptides with m/z = 694.3 were identified (Table4). This corresponds to the N‐terminal o‐aminobenzoyl (Abz)‐FRHD peptide. Thus, both Aβ(4–10) peptides were endoproteolytically cleaved at the Asp7‐Ser8 bond. The Cdom and CC‐sACE cleavage sites were not analysed as there was negligible hydrolysis of the Aβ peptides by these ACE variants under kinetic assay conditions. Hydrolysis of Aβ(1–16) by all the ACE variants except Cdom yielded peptides with m/z ratios of 1698.6 (Ndom), 1698.7 (N‐sACE, C‐sACE, CC‐sACE) and 1698.8 (sACE) within kinetic assay parameters. These peptides correspond to the N terminus Aβ(1–14) (DAEFRHDSGYEVHH) with a calculated mass of 1698.7 (Table 4). […] To determine if the Aβ(1–16) is further degraded over time by all forms of ACE, 36.5 μM of Aβ(1–16) was incubated for 24 h (Table 5). […] The Aβ(1–12) product is probably hydrolysed faster by the Cdom, Ndom and wild‐type sACE. Overall, there appears to be no absolute domain preference for any specific P1 and P1′ residues, similar to the hydrolysis for 15 min.
Kinetic reaction digests, 24 h digests and undigested Aβ(1–16) samples were collected off the HPLC, dried down with the Savant SpeedyVac (ThermoScientific, USA) and then resuspended in 50% acetonitrile (ACN) prior to being sent for mass spectrometry. The Aβ(4–10)Q and Aβ(4–10)Y digested and undigested samples were cleaned over a C18 Zip Tip® (Millipore) and sent for mass spectrometry. The mass spectrometry was analysed at the Centre for Proteomic and Genomic Research (Cape Town, South Africa). Briefly, the collected peptides were spotted onto a 10 mg·mL^−1 α‐cyano‐4‐hydroxycinnamic acid matrix (Fluka, USA) in 80% ACN, 0.2% TFA for a final concentration of 5 mg·mL^−1 matrix in 40% ACN, 0.1% TFA, 10 mM NH4H2PO4. Mass spectrometry was performed with a 4800 MALDI‐TOF/TOF (Applied Biosytems) with all spectra recorded in positive reflector mode. Spectra were generated with 400 laser shots/spectrum at a laser intensity of 3800 (arbitrary units) with a grid voltage of 16 kV.

sACE [6] = molecular target: T3, sACE; test: Interdomain cooperativity in hydrolysis of Aβ substrates; type: biochemical; conditions: two domains of sACE, truncated and full‐length constructs compared
Description: as §1
as §4, with “Prism®). […]” for “Prism®).”

[7] = mean ± fractional error of the ratio
[8] = HPLC, 50 mM Hepes pH 7.5, 100 mM NaCl, 10 μM ZnSO4, substrate 0 to 45 μM, 15 min, 37 °C, enzyme 0.050 pmol, mean ± SEM, n = 3

“H‐DAEFRHDSGYEVHHQK‐OH [Aβ(1–16), amyloid beta peptide 1–16 (Bachem AG; Sigma SCP0052 for crystallography)]” was tested, and the K m ([1]; mean ± SEM) was 21.35 ± 0.21 µM, the V max ([1]; mean ± SEM) was 0.49 ± 0.02 and the k cat ([1]; mean ± SEM) was 39.30 ± 0.47 s⁻¹. For the same substance, the “k cat/K m” value [1, 7] was 18.46 M^−1·s^−1 × 10^5 and 18.46 ± 0.72 M^−1·s^−1 × 10^5, the K m (N‐sACE; [8]) was 34.20 ± 5.90 µM and the V max (N‐sACE; [8]) was 0.55 ± 0.08. For the same substance, the k cat (N‐sACE; [8]) was 11.03 ± 1.62 s⁻¹, the “k cat/K m” value (N‐sACE; HPLC, 50 mM Hepes pH 7.5, 100 mM NaCl, 10 μM ZnSO4, substrate 0 to 45 μM, 15 min, 37 °C, enzyme 0.050 pmol, mean ± fractional error of the ratio, n = 3) was 3.21 ± 0.72 M^−1·s^−1 × 10^5 and the “k cat/K m for N‐sACE, fold lower than that for Ndom” value (N‐sACE; N‐sACE versus Ndom, P < 0.05) was 6 fold. The K m (sACE [2]; mean ± SEM) was 35.20 ± 4.03 µM, the V max (sACE [2]; mean ± SEM) was 1.00 ± 0.19 and the k cat (sACE [2]; mean ± SEM) was 8.37 ± 0.90 s⁻¹. For the same substance, the “k cat/K m” value (sACE [2]; [7]) was 2.36 ± 0.37 M^−1·s^−1 × 10^5, the K m (C‐sACE; mean ± SEM) was 42.36 ± 9.57 µM and the V max (C‐sACE; mean ± SEM) was 1.15 ± 0.14. For the same substance, the k cat (C‐sACE; mean ± SEM) was 0.67 ± 0.08 s⁻¹, the “k cat/K m” value (C‐sACE; [7]) was 0.17 ± 0.04 M^−1·s^−1 × 10^5 and the “hydrolysis by CC‐sACE” value (CC‐sACE) was “the rate was too slow to generate accurate kinetic constants”. For the same substance, the “hydrolysis by truncated Cdom” value [3] was “not hydrolysed”, the “cleavage site (bond)” value (ACE variants [4]) was “His14‐Gln15” and the “Aβ(1–7) cleavage site” value (ACE variants [5]; 36.5 μM Aβ(1–16)) was “found across constructs barring N‐sACE and CC‐sACE”. For the same substance, the “C‐terminal product Aβ(12–16)” value (ACE variants [5]; 36.5 μM Aβ(1–16)) was “detected in both Cdom and Ndom digests as well as in sACE and C‐sACE, but not N‐sACE or CC‐sACE”, the “initial cleavage intermediate Aβ(1–14)” value (ACE variants [5]; 36.5 μM Aβ(1–16)) was “present across all ACE constructs except for N‐sACE” and the “hydrolysis at His6‐Asp7” value (ACE variants [5]; Aβ(1–16)) was “only seen after a 24 h incubation with C‐sACE”. The interdomain cooperativity (sACE [6]) was “negative”.
